By UniProt entry, the sequences of proteins in these tests, tags left out.
Protein AF-9 (Homo sapiens), P42568, UniProt P42568, whole entry, looked up: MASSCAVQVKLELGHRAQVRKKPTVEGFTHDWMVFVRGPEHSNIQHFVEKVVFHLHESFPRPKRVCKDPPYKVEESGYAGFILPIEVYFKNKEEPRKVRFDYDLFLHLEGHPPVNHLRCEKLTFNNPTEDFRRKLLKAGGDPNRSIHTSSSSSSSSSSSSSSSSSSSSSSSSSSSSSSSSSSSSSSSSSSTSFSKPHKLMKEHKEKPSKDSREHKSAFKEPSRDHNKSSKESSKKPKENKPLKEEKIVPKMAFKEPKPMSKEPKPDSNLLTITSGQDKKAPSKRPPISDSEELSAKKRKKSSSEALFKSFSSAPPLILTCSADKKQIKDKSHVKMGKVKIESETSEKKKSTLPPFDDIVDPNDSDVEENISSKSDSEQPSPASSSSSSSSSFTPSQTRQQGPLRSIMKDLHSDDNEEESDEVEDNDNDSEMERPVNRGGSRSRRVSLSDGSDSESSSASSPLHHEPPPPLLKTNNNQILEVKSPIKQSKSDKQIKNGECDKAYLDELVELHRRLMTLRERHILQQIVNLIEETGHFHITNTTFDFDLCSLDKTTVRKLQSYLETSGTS

# UUG fidelity = yeast start codon fidelity modulation | S. cerevisiae UUG-firefly luciferase reporter, luminescence/redox ratio | activity score, % at 18.7 µM | 0.13% of 350,000 active | AID 602363;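 active means replicate mean at a twofold rise or more, about +100% in these data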;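 further: firefly luciferase made from a UUG start codon reports start codon fidelity; reporter light over untreated wells divided by growth signal over untreated wells; some hits fall short of that in this replicate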
# SIRT5 inh = SIRT5 desuccinylase inhibitors, primary screen, biochemical, fluorescence imaging, single point, set 5 | NAD-dependent protein deacylase sirtuin-5, mitochondrial (Homo sapiens), Q9NXA8 | inhibition, % at 15 µM | Purified SirT5, succinyl-peptide AMC, trypsin-coupled fluorescence | 330,000 compounds, 1.1% hits; in the data active = inhibition above about 15%; inconclusive = no clear call, values can overlap the other calls
# RAD52 anneal inh = RAD52 DNA annealing inhibitors, primary screen, biochemical, FRET, single point, set 2; recombinant RAD52 DNA annealing, FRET fluorescence; inhibition, % at 18.7 µM; 360,000 compounds, 0.46% hits;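 active = every replicate showing at least 50% inhibition; inconclusive = mean inhibition at least 50% but not in every replicate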
# AF4-AF9 inh = inhibitors of AF4 peptide binding to AF9, primary screen, biochemical, AlphaScreen, biotin-AF4 peptide, FLAG-AF9, single point; 350,000 compounds, 0.47% hits; inhibition, % at 10 µM; Protein AF-9 (Homo sapiens), P42568;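 active = every replicate reaching a set inhibition limit, whatever the replicate mean, cut at about 25% in these data; inconclusive = mean inhibition reaches that limit but some replicates miss it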
# E-sel inducer = E-selectin induction in HUVECs, primary screen, imaging, HUVEC, immunofluorescence imaging, single point; P16581; normalized: neutral wells 0, TNF-alpha wells 100; activation, % at 7.58 µM; 260,000 compounds, 0.37% hits; AID 686992, 2013;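 active = mean E-selectin-positive cell signal at least 10% of the positive control, reached in at least 60% of replicates, without over 20% cell loss; inconclusive = no rule given, readout overlaps actives, possibly toxicity-flagged; inactive = the rest, including those meeting only one limit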
#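 Assay system: HUVEC primary endothelial cells. Input: 3,000 HUVEC seeded per well. Doses: one compound dose added by pin transfer. Read-out basis: % PE-positive cells. Benchmarks: TNF-alpha high, DMSO low. Detection: immunofluorescence imaging. Buffer or medium: EGM-2, gelatin.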
# RAD54 branch = inhibitors of human RAD54 branch migration, primary screen, biochemical, fluorescence, single point. DNA repair and recombination protein RAD54-like (Homo sapiens), Q92698. RAD54 Holliday junction branch migration, FAM/BHQ fluorescence. inhibition, % at 10.4 µM. 360,000 compounds, 0.14% hits;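 active = mean normalized replicate activity at least 40 and at least half of replicates scoring 40 or more; inconclusive = only one of the two criteria met; inactive = mean below 40 and under half of replicates reaching 40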;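 also: inhibitors cause a drop in the FAM fluorescence signal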
# Hits are given with their value; 0 = inactive; ? = inconclusive; - = no result; ! = a repeat was not active. A selection: hits, their analogues and other compounds. The true share with any hit is near 1.8%.
SMILES,UUG fidelity,SIRT5 inh,RAD52 anneal inh,AF4-AF9 inh,E-sel inducer,RAD54 branch
Fc1ccccc1Cc1noc(CN2CCCC(CN3CCOCC3)C2)n1 (stereo unspecified),0,22,0,0,0,0
CC(C)CC#Cc1cnc2c(c1)C(=O)N([C@H](C)CO)C[C@H](C)[C@@H](CN(C)C(=O)c1ccccc1)O2,0,-,0,0,0,0
O=C(NN1C(=O)/C(=C/C=C/c2ccccc2)SC1=S)c1ccncc1,-,22,0,0,-,-
O=C(NN1C(=O)/C(=C/C=C/c2ccco2)SC1=S)c1ccncc1,0,43,0,0,-,0
O=C(O)c1ccc(N2C(=O)/C(=C/C=C/c3ccccc3)SC2=S)cc1,-,0,0,0,-,-
CC(C)COC(=O)CCn1[nH]c(=O)c2ccccc2c1=O,0,-,-,-,-,0
CC(=O)OCC(C)n1[nH]c2ccccc2c1=O (stereo unspecified),0,40,0,0,0,0
CC(C)NC(=O)Nc1ccc2c(c1)C(=O)N([C@H](C)CO)C[C@@H](C)[C@H](CN(C)Cc1ccc(C(F)(F)F)cc1)O2,0,15,0,0,0,0
CC(C)NC(=O)Nc1ccc2c(c1)C(=O)N([C@@H](C)CO)C[C@H](C)[C@@H](CN(C)Cc1ccc(C(F)(F)F)cc1)O2,0,0,0,0,89,0
CC(C)NC(=O)Nc1ccc2c(c1)C(=O)N([C@@H](C)CO)C[C@@H](C)[C@@H](CN(C)Cc1ccc(C(F)(F)F)cc1)O2,0,0,0,0,59,0
C[C@@H]1CN([C@@H](C)CO)C(=O)c2cc(NC(=O)Nc3ccc(C(F)(F)F)cc3)ccc2O[C@@H]1CN(C)Cc1ccc(C(F)(F)F)cc1,0,0,0,0,0,0
Cc1ccc(NC(=S)NCC2CCN(C(C)c3ccccc3)C2)cc1C (stereo unspecified),-,0,0,25,0,-
Cc1ccc(NC(=S)NCC2CCCO2)cc1C (stereo unspecified),0,-,-,-,-,0
Cc1cc2cc(CNC(=O)c3ccc(S(=O)(=O)N4CCCCC4)cc3)ccc2n1C,0,0,0,0,82,0
Cc1cc2cc(CNC(=O)c3ccc(S(=O)(=O)N4CCCC4)cc3)ccc2n1C,0,0,0,0,?,0
Cc1cccc(CNC(=O)Cn2ccc3cc(S(=O)(=O)N4CCCC4)ccc32)c1,0,16,0,0,-,0
COc1ccc(CNC(=O)CCn2ccc3cc(S(=O)(=O)N4CCCC4)ccc32)cc1,0,34,0,0,0,0
Cc1ccccc1CNC(=O)Cn1ccc2cc(S(=O)(=O)N3CCCCCC3)ccc21,0,19,0,0,0,0
COc1cccc(CNC(=O)CCn2ccc3cc(S(=O)(=O)N4CCCC4)ccc32)c1,0,0,0,0,-,0
COc1ccccc1NS(=O)(=O)c1cccc(C(=O)NCC(c2ccccc2OC)N2CCCC2)c1 (stereo unspecified),0,15,0,0,-,0
COc1ccccc1NS(=O)(=O)c1cccc(C(=O)NCC(c2ccco2)N2CCCC2)c1 (stereo unspecified),0,0,0,0,0,0
O=C(C[C@H]1CC[C@H](NC(=O)c2ccncc2)[C@@H](CO)O1)NCc1ccncn1,-,0,0,0,0,-
CCOC(=O)C1CCN(C(=O)c2ccc(Cl)c(NC3=NC4CS(=O)(=O)CC4S3)c2)CC1 (stereo unspecified),0,0,0,25,-,0
COc1ccc(N2CCN(C(=O)c3cccc(NC4=NC5CS(=O)(=O)CC5S4)c3)CC2)cc1 (stereo unspecified),0,0,0,0,53,0
CC(=O)c1ccc(N2CCN(C(=O)c3ccc(Cl)c(NC4=NC5CS(=O)(=O)CC5S4)c3)CC2)cc1 (stereo unspecified),0,0,0,0,-,0
SMILES,UUG fidelity,SIRT5 inh,RAD52 anneal inh,AF4-AF9 inh,E-sel inducer,RAD54 branch
COCC(=O)N(C)C[C@@H]1Oc2cc(C3=CCCCC3)ccc2S(=O)(=O)N([C@@H](C)CO)C[C@@H]1C,0,0,0,0,0,0
COCCNc1nc(NCc2cnc(C)cn2)c2sccc2n1,0,17,0,0,0,0
C[C@@H]1CN([C@@H](C)CO)C(=O)c2cc(NS(=O)(=O)c3ccccc3)ccc2O[C@@H]1CN(C)Cc1ccc(-c2ccccc2)cc1,0,18,0,0,0,0
C[C@H](CO)N1C[C@H](C)[C@H](CN(C)Cc2ccc(-c3ccccc3)cc2)Oc2ccc(NS(=O)(=O)c3ccc(F)cc3)cc2C1=O,0,0,0,0,0,0
C[C@H]1CN([C@@H](C)CO)C(=O)c2cc(NS(=O)(=O)c3ccc(F)cc3)ccc2O[C@@H]1CN(C)Cc1ccc(-c2ccccc2)cc1,0,15,0,0,0,0
Cc1ccc(S(=O)(=O)Nc2ccc3c(c2)C(=O)N([C@@H](C)CO)C[C@@H](C)[C@@H](CN(C)Cc2ccc(-c4ccccc4)cc2)O3)cc1,0,17,0,0,0,0
NCC[C@@H]1CC[C@H](NC(=O)c2ccccc2F)[C@H](CO)O1,-,0,0,0,0,0
CC(C)CC#Cc1ccc2c(c1)O[C@@H](CN(C)Cc1ccccn1)[C@H](C)CN([C@H](C)CO)S2(=O)=O,0,0,0,0,0,0
CN(C)C(=O)c1cccc(-c2cccc(-c3nc(C(=O)N4CCOCC4)cc4c3[C@@H](CCO)N([S@](=O)C(C)(C)C)C4)c2)c1,-,0,0,0,0,0
CCCC(=O)Nc1ccc2c(c1)OC[C@@H](C)N(C(=O)CN(C)C)C[C@H](C)[C@@H](OC)CN(C)C2=O,-,0,0,0,0,0
COc1ccc2c3c([nH]c2c1)[C@H](CO)N(S(C)(=O)=O)CC31CCN(CC2CC2)CC1,-,0,0,0,0,-
C[C@@H]1CCCCO[C@H](CN(C)C(=O)Nc2cccc3ccccc23)[C@@H](C)CN([C@H](C)CO)C(=O)c2cc(N(C)C)ccc2O1,0,27!,0,0,0,0
C[C@@H]1CN([C@@H](C)CO)C(=O)c2cc(N(C)C)ccc2O[C@@H]1CN(C)C(=O)Nc1cccc2ccccc12,0,0,0,0,39,0
C[C@@H]1CCCCO[C@@H](CN(C)C(=O)Nc2cccc3ccccc23)[C@H](C)CN([C@@H](C)CO)C(=O)c2cc(NC(=O)c3ccccc3)ccc2O1,0,17,0,0,-,0
C[C@H]1CN([C@@H](C)CO)C(=O)c2cc(C3=CCCCC3)cnc2O[C@H]1CN(C)C(=O)C1CCOCC1,0,0,0,0,0,0
O=C(NCC[C@@H]1CC[C@@H](NC(=O)c2cnccn2)[C@H](CO)O1)c1ccc2c(c1)OCO2,0,0,0,0,0,0

# Screening data deposited in PubChem by Broad Institute.
